Consider 1 compound from US20250129069A1, “TRIAZOLO WRN INHIBITORS” (Nimbus Wadjet, Inc., priority 2023, published 2025).

The chains behind the UniProt entries cited, without tags or fusion partners. A line that says so, or that is headed by a name, gives the form on record, which may keep a tag or linker. Residues count along the entry.
UniProt Q14191, 517-1235 with tags or gaps L1074F limits assumed: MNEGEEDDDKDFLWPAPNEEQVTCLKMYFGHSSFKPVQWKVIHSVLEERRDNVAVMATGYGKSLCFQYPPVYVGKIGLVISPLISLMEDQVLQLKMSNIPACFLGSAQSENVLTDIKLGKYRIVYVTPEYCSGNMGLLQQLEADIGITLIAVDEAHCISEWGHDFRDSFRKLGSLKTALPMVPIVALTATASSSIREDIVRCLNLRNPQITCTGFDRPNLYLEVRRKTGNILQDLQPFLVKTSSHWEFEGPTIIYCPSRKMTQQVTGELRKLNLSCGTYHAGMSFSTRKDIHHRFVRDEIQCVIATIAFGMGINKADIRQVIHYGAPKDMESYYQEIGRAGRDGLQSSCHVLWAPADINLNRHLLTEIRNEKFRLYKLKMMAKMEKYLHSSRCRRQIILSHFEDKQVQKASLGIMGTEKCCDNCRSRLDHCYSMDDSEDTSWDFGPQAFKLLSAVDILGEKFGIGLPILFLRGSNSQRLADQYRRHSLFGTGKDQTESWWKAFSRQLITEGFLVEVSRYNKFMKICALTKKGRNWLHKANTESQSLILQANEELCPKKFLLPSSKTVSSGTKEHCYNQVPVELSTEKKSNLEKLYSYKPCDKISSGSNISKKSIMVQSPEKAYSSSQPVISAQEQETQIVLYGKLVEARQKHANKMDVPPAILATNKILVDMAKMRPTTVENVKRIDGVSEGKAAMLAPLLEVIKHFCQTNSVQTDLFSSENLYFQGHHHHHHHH

The target in experiment [1] is human Werner helicase (WRN, amino acids 517-1235 with L1074F point mutation) (Homo sapiens (Human), UniProt Q14191, L1074F). The experiment is described as follows: WRN (BV08) ADP-Glo assay. The note with it: read-out: ADP-Glo_hWRN_IC50, human WRN (aa 517-1235, L1074F). (In general: ADP-Glo first removes unused ATP, then detects ADP through luciferase.)
Experiment [2] deals with p21 induction in HCT 116 cells. The experiment is described as follows: p21 induction in cells (In-Cell Western, p21/GAPDH ratio). The following applies: read-out: p21_EC50, 24 h compound incubation. The protocol: The colon carcinoma cell line HCT 116 was obtained from ATCC and cultured in growth medium consisting of Mccoy's 5A Medium (Gibco 16600108) supplemented with 10% FBS (Transgene FS201-02) and 100 units/mL penicillin-streptomycin (Gibco 15140122) and maintained at 37° C. under 5% CO2. On the day of seeding, 2,000 cells in 30 μL of culture media were plated per well to Poly-D-Lysine 384 Well Black Clear Plates (Biocoat 356663) and incubated overnight at 37° C. under 5% CO2. The following day, compounds were serially diluted in DMSO for a total of 11 test concentrations. The typical starting concentration of compounds was 10 μM with 2-fold dilutions. Next, 150 nL of diluted compound was added in duplicate to the assay plate, using an Echo 655 (Labcyte). The plate was centrifuged at 500 RPM for 1 min and then incubated at 37° C. under 5% CO2 for 24 h. […] Finally, the p21 signal and the GAPDH signal were quantified using a LI-COR Odyssey CLx Imager machine reading at 800 nm and 700 nm, respectively. […] For quantitation, the 800 nm/700 nm ratio was calculated for each well to give fold p21 induction and then percent activation for each compound well was calculated as follows (100×(ratio cpd well-ratio low control)/(ratio high control−ratio low control). EC50 values for each compound was generated after non-linear regression curve fitting using commercially available software.

For the compound `CCc1c(N2CCN(C(=O)c3c(O)cc(OC)cc3OC)CC2)c(=O)c2nn(-c3ccnc(OC)c3)nc2n1CC(=O)NC12CC(C3CC3)(C1)C2`, in experiment [1], the IC50 lay in the range of 5 to 50 nM. Further, the EC50 in experiment [2] fell in the range of 2000 to 5000 nM.
